# Hit rate of the full screen: of about 190,000 compounds, about 270 (0.14%) were called active. These results got no clear call from the source, so the numbers are uncertain.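 The calls were made as follows: active = GTP binding activity at least 20% away from the 100% baseline, either lowered as inhibitor or raised as activator; inconclusive = flagged as likely green fluorescent, judged across all proteins in the well; inactive = the rest.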
# Target: GTPase HRas (Homo sapiens) (UniProt P01112)
# Test: HRas wt fluorescent GTP binding changes, either direction – biochemical, wildtype, bead-based flow cytometry, multiplex, primary screen (AID 759);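 also: 0% = unlabeled GTP competition control and 100% = no-compound control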
# Details: GST-Ras wt beads, Bodipy-FL-GTP binding, at 10 µM, actives lie on both sides
row,Compound,GTP binding activity
1,COc1ccccc1OP(=O)(Nc1ccc(C)cn1)Oc1ccccc1OC,inconclusive: 93%
2,CC(C)=N/N=C(\N)N[N+](=O)[O-],inconclusive: 96%
3,O=C(OC1CN2CCC1CC2)C12CC3CC(CC(C3)C1)C2 (stereo not drawn),inconclusive: 101%

# Source: PubChem BioAssay AID759 (NMMLSC, 2007)
